Assay results from patent US11642339B2 (THERAVANCE BIOPHARMA R&D IP, LLC, priority 2017, dated 2023).
Where two headings read alike, the source gives them in different places.

Key:
platelet aggregation = assay: Off-target: platelet aggregation
[1] = system: patients with diabetic or idiopathic gastroparesis; settings: Phase 2a; 5, 15, 30 mg once daily, 1-week periods
[2] = system: subjects with diabetic or idiopathic gastroparesis
coronary artery tone = settings: across multiple species including human

1-isopropyl-2-oxo-1,2-dihydroquinoline-3-carboxylic acid {(1S,3R,5R)-8-[(R)-2-hydroxy-3-(methanesulfonyl-methyl-amino)propyl]-8-azabicyclo[3.2.1]oct-3-yl}amide [Velusetrag]
effects on platelet aggregation (platelet aggregation): no effects
tolerability [1]: well tolerated
Subjects who did not complete study treatment period: Adverse Event, % ([2]; 5 mg/day): (3.4) %
Subjects who did not complete study treatment period: Adverse Event, % ([2]; 15 mg/day): (10.5) %
subjects with treatment emergent adverse events ([2]; 30 mg group): 50.0%
Subjects who did not complete study treatment period: Adverse Event, % ([2]; 30 mg/day): (6.9) %
tolerability ([2]; DIGEST I, 12 weeks): generally well-tolerated
significant adverse events ([2]; DIGEST I, 232 subjects dosed): No significant adverse events
effects on coronary artery tone (coronary artery tone): no effects
